Tests used:
[1] = tested on: healthy subjects of men and women; assay: CNS Vital Signs cognitive function assessment after single intake in healthy men and women; type: in vivo, human; details: single intake of 1.5 g mannitol with lunch, vs control diet, crossover (FIG. 6)
Method: Cognitive function of 4 healthy subjects of men and women. (average age 38.5 years old±9.5, 3 men and a person) after the intake of a control diet and a diet containing 1.5 g of mannitol powder (D-mannitol, B Food Science Co., Ltd.) (hereinafter described as a mannitol diet) was assessed. […] The following cognitive function tests were performed before the intervention (before lunch, from 10:10) and after the intervention (after lunch, from 12:40). The tests were performed in a crossover design with a washout period of 1 week or more. In two days of the tests in total the same subject had both the control diet and the mannitol diet and measurement was performed. Control diet: instant cup udon noodle (458 kcal) Mannitol diet: instant cup udon noodle to which 1.5 g (2.4 kcal) of mannitol powder was added (460.4 kcal) CNS Vital Signs (CNS Vital Signs, LLC, Japanese version) was used for the assessment of cognitive function (Archives of Clinical Neuropsychology, 2006, 21:7:623-643). In the present Examples, cognitive function was assessed based on the following 7 tests. First, 15 words are presented, one by one, on a PC screen every 2 seconds, and the subject memorizes them. Immediately or about 30 minutes after that, a larger number of words including 15 new words are presented, and the subject presses the space bar when a word they have memorized appears. First, 15 geometric figures are presented, one by one, on a PC screen every 2 seconds, and the subject memorizes them. Immediately or about 30 minutes after that, a larger number of figures including 15 new figures are presented, and the subject presses the space bar when a figure they have memorized appears. The subject presses the space bar with his/her right index finger as fast as possible for 10 seconds. The test is repeated with the left hand. A table containing combinations of a symbol and a number is presented above on a PC screen. The subject types in the number that corresponds to the symbol in an empty box below on the screen. The stroop test has three parts. In the first part, the words RED, YELLOW, BLUE and GREEN printed in black appear at random on the screen. The subject presses the space bar as soon as the word appears (simple reaction). In the second part, the words RED, YELLOW, BLUE and GREEN appear on the screen, printed in color. The subject presses the space bar when the color of the word matches the meaning of the word (complex reaction). In the third part, the words RED, YELLOW, BLUE and GREEN appear on the screen, printed in color. […] Three figures (a square or a circle in red or blue) appear on the screen, one on top, two on the bottom. The subject is instructed to follow the rule of matching figures by “shape” or “color” (“match figures by shape” or “match figures by color”), and selects one of two bottom figures, that matches the top figure. The rule of matching instructed (“match figures by shape” or “match figures by color”), and colors (red and blue) and shapes (a circle and a square) of the three figures are changed at random. The subject responds to only “B” and press the space bar, out of letters presented at random on the screen, but not to any other letter. The test continues for 5 minutes. Standardized scores of cognitive function domains were calculated from the results of the tests based on the method of calculation of CNS Vital Signs. The standardized score is calculated by normalization with an average value of 100 and standard deviation of 15 for the subject's age group (in 5-year increments). The results of the tests shown in Table 4 are reflected in the calculation of scores for the respective cognitive function domains. The values obtained are in the average value±standard deviation. To compare the average value of the control diet intake group (control group) with that of the mannitol diet intake group (mannitol-supplemented group), paired t-test was used.

[2] = tested on: senescence-accelerated mice (SAM) P8; assay: Novel object recognition test in senescence-accelerated mice; type: in vivo; details: SAMP8 mice, 50 mg/kg of body weight/day orally for 4 weeks, vs control group (FIG. 5)
Method: Male senescence-accelerated mice (SAM) P8 (Japan SLC, inc.), which developed memory and learning impairment associated with age, were transferred at 27 weeks old, and used after a 5-day quarantine period and a 3-day acclimating period. In the acclimating period the body weight was measured and the mice were grouped so that the body weight of each group was equivalent to each other. As a test substances injection water (Otsuka Pharmaceutical Co., Ltd.) of mannitol (50 mg/kg of body weight/day, SAC Corporation) was orally administered once per day for 4 weeks (28 to 32 weeks old) using a stomach tube. After administration of the test substance for 4 weeks (33 weeks old), memory and learning function was assessed. […] The behavior of the mice was video-recorded for 10 minutes and the time of recognition (the time for which the nose or the forelimb of the mouse touched each object) was measured (training trial). […] The behavior of the mice was video-recorded for 5 minutes and the time of recognition was measured (retention trial). The score of memory and learning ability was assessed based on the ratio of recognition of novel objects in the retention trial (see the following equation). […] When the P value was 0.05 or less, the difference was determined to be statistically significant.

Q: Which results are given for `OC[C@@H](O)[C@@H](O)[C@H](O)[C@H](O)CO` [mannitol]?
A: standardized score of composite memory [1]: significantly higher (P<0.05); standardized score of motor speed [1]: tended to be higher (P<0.1); standardized score of neurocognitive index [1]: significantly higher (P<0.05); standardized score of processing speed [1]: significantly higher (P<0.05); standardized score of psychomotor speed [1]: significantly higher (P<0.05); standardized score of reaction time [1]: tended to be higher (P<0.1); standardized score of verbal memory [1]: tended to be higher (P<0.1); ratio of recognition of novel objects (object recognition and learning ability) [2]: increase

— US20200397840A1, “Cognitive Function Improvement Agent” (Kao Corporation, priority 2017, published 2020)
